This note sets out measurements from US12622948B2 (SUN PHARMACEUTICAL INDUSTRIES LIMITED, priority 2020, dated 2026).

Assay [1] concerns type 2 diabetic mouse (db/db) model. As to the kind of experiment: Efficacy study in db/db mice at 10 nM/kg dose (blood glucose, body weight, food intake). The format is in vivo. The note with it: Study 1, db/db mice, 10 nM/kg s.c. The protocol:
The effect of compounds of present invention on blood glucose, food intake and body weight was studied in mice. This study was performed in a type 2 diabetic mouse (db/db) model. […] Baseline blood glucose was measured from all the animals. All the animals were administered with test items subcutaneously. […] Delta blood glucose (mM) was calculated. […] The animals were divided into 7 treatment groups (n=6)—a diabetic control group, Compound 1, Compound 3, Compound 4, Compound 5, Compound 6 and Compound 7. Baseline blood glucose was measured from all the animals. All the animals were administered with test items subcutaneously. […] Delta blood glucose (mM) was calculated. […] Similarly, the efficacy of Compound 8 and 9 in db/db mice at 10 nM/kg dose were carried out in a separate study. The animals were divided into 3 treatment groups (n=5)—a diabetic control group, Compound 8 and Compound 9. Baseline blood glucose was measured from all the animals. All the animals were administered with test items subcutaneously. […] Delta blood glucose (mM) was calculated. […] Another separate efficacy study for Compound 10, 11 and 12 in db/db mice at 10 nM/kg dose were carried out. The animals were divided into 4 treatment groups (n=5)—a diabetic control group, Compound 10, Compound 11 and Compound 12. Baseline blood glucose was measured from all the animals. All the animals were administered with test items subcutaneously. […] Delta blood glucose (mM) was calculated.

In the next assay the target is T1, GIPR (Homo sapiens, UniProt P48546).
T1 sequence (P48546 22-466): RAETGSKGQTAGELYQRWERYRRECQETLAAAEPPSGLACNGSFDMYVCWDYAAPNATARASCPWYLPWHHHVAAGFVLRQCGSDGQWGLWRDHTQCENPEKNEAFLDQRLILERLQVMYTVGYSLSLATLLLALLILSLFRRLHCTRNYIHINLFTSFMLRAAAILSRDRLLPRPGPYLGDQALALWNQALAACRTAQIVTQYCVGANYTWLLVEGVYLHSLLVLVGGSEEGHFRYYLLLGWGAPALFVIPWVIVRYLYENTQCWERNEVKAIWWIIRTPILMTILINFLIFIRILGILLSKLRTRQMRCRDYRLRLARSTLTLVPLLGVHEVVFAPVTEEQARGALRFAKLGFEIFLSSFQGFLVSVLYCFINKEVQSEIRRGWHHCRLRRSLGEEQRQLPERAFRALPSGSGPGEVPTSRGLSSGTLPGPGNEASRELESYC
Nature of the assay: Cellular cAMP assay (cAMP Hunter eXpress GPCR Assay), GIPR-expressing cells. The following applies: cAMP production, read-out: Half effective Concentration (EC50) GIPR. The format is cell-based. An excerpt: G protein coupled receptor (GPCR) activation following ligand binding initiates a series of second messenger cascades that results in a cellular response.

The test system of assay [2] is type 2 diabetic mouse (db/db) model. As to the kind of experiment: Efficacy study in db/db mice at 3 and 20 nM/kg dose (blood glucose, body weight, food intake). The format is in vivo. As for the experimental part:
The effect of compounds of present invention on blood glucose, food intake and body weight was studied on mice. This study was performed in type 2 diabetic mouse (db/db) model. […] Baseline blood glucose was measured from all the animals. All animals were administered with test items subcutaneously. […] Delta blood glucose (mM) was calculated. Body weight changes and cumulative food consumption was measured at 72 hr post treatment.

Marks after values point to notes of the source that are not given here.

Turning to Tirzepatide [reference compound], the “Delta Blood Glucose (mM), Mean” value is given as 0 mM in assay [1] (0 hr (baseline)); −9.9*** mM in assay [1] (4 hr); −8.7*** mM in assay [1] (8 hr); −8.6*** mM in assay [1] (12 hr); −11.4*** mM in assay [1] (24 hr); −5.3*** mM in assay [1] (48 hr). Besides, the “Delta Blood Glucose (mM), Mean” value in assay [1] (72 hr) is −3.7*** mM; in assay [1] (96 hr), 3.7 mM; in assay [2] (3 nM/kg s.c., 0 hr (baseline)) it was 0.0 mM; in assay [2] (3 nM/kg s.c., 4 hr) it was −4.4* mM; in assay [2] (3 nM/kg s.c., 24 hr), -1.6 mM; in assay [2] (3 nM/kg s.c., 48 hr), 0.7 mM. The “Delta Blood Glucose (mM), Mean” value in assay [2] (3 nM/kg s.c., 72 hr) was 1.4 mM; in assay [2] (20 nM/kg s.c., 0 hr (baseline)) it was 0.0 mM; in assay [2] (20 nM/kg s.c., 4 hr), −8.2*** mM; in assay [2] (20 nM/kg s.c., 24 hr) it was −11.1*** mM; in assay [2] (20 nM/kg s.c., 48 hr) it was −7.6*** mM; in assay [2] (20 nM/kg s.c., 72 hr), -1.3 mM. Moreover, the EC50 on GIPR was determined as 1.9 nM.
